Results taken from publication PMC3644557 (Methods (San Diego, Calif.), 2012).

Tests used:
NT495-His-AMA1 = NT495-His-AMA1 (Plasmodium falciparum, UniProt Q7KQK5 1-622, fluorescent dye NT495, position not stated); assay: fluorescence polarisation
[1] = molecular target: recombinant His-tagged apical membrane antigen 1 (His-AMA1), unlabeled (Plasmodium falciparum, UniProt Q7KQK5 1-622); assay: SPR

DITQQAKDIGAGPVASCFTTRMSPPQQICLNSVVNTALS (biotin, position not stated) [biotinylated RON2 peptide]
EC50 (NT495-His-AMA1): 77.1 ± 0.2 nM | Kd [1]: 13 ± 1 nM
